For this assay, the system named is hematopoietic stem/progenitor cells (HSPCs). As to the kind of experiment: HSPC mobilization into peripheral blood, colony forming unit (CFU) assay. Particulars: mice, single dose.

Take `COCCOCCOCCOCCOCCOCCOCCOCCOCCOCCOCCOCCOCCOCCOCCOCCOCCOCCOCCOCCOCCOCCOCCOCCn1cc(COCCOCCOCc2cc(OC)c(-c3ccc(C[C@H](NC(=O)[C@@H]4CCCN4S(=O)(=O)c4cc(Cl)cc(Cl)c4)C(=O)O)cc3)c(OC)c2)nn1`: the “No. CFU (×10^3)/mL ± SD, 0.25 hr” value (0.25 hr post dose (TABLE 8)) is listed as 2.71 ± 0.63 (×10^3)/mL. The “No. CFU (×10^3)/mL ± SD, 2 hr” value (2 hr post dose (TABLE 8)) is recorded as 3.97 ± 0.96 (×10^3)/mL. Further, the “No. CFU (×10^3)/mL ± SD, 4 hr” value (4 hr post dose (TABLE 8)) is given as 3.30 ± 0.22 (×10^3)/mL.

These data come from patent US20250381168A1, “VLA4 INHIBITORS AND USES THEREOF” (Washington University, priority 2022, published 2025).
